Earlier results, collected in patent US5589337A (priority 1995, dated 1996).

Assays:
merR gene = details: cited from earlier work
ada gene = details: cited from earlier work

Which merR gene response (merR gene) does the source give for elemental mercury here?
Its merR gene response is “responds”.

For `CN(N=O)C(=N)N[N+](=O)[O-]`, which “ada gene expression induction” value (ada gene) is on record?
Its value is “induce ada gene expression”.
